Laboratory results from patent publication US7261876B2, “Multivalent constructs for therapeutic and diagnostic applications” (Bracco International BV, priority 2002, dated 2007).

Chains of the proteins cited; added tags and fusions are not shown. Residues count along the entry.
UniProt P35968, 20-1356: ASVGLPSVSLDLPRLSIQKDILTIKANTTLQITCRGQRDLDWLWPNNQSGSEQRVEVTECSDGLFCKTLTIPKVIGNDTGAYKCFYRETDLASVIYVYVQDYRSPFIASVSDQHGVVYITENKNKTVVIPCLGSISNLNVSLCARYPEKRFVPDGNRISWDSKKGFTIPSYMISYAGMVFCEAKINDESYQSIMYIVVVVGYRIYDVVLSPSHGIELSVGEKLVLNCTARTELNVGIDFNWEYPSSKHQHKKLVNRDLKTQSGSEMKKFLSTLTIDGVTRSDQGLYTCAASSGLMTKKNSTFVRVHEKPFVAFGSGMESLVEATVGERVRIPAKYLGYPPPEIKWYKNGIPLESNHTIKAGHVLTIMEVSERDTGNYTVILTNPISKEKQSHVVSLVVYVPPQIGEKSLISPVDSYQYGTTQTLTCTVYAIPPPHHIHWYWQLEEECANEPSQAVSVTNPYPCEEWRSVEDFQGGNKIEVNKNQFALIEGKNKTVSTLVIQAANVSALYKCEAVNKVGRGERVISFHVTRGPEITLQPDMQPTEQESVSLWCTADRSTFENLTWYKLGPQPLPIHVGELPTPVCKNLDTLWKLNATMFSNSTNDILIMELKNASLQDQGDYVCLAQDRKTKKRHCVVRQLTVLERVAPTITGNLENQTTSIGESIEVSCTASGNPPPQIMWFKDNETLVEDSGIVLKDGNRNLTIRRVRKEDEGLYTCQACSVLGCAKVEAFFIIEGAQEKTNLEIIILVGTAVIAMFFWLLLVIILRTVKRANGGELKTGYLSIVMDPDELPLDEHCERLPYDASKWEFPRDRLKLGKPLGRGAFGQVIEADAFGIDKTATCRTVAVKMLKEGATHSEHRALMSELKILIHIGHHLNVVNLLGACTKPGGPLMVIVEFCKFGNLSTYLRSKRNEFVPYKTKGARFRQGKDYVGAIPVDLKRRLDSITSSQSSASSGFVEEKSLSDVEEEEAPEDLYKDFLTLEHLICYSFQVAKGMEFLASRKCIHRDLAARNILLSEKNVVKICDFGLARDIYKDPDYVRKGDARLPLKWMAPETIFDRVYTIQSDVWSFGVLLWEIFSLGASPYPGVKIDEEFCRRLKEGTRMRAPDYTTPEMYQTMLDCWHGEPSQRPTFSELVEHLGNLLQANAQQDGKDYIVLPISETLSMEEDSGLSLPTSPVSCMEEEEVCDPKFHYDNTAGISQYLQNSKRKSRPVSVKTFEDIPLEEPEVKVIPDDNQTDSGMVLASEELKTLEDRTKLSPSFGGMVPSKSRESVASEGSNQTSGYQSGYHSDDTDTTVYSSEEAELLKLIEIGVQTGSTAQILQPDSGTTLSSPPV

Molecular target: T1, KDR-expressing cells (Homo sapiens, UniProt P35968)
T1 construct: Both PCR products were digested with Not1 and ligated together to create the full-length receptor; V5-His (encoded by the vector); expressed in transfected cells; host or cells: 293H cells (Invitrogen cat. # 11631), transient lipofectamine 2000 transfection
Experiment: Displacement assay competing with P12-XB/streptavidin-HRP complex for binding to KDR-expressing cells
Conditions: complex concentration 5.5 nM

Structure (SMILES): CC[C@H](C)[C@H](NC(=O)[C@H](CCC(=O)O)NC(=O)[C@H](CC(=O)O)NC(=O)[C@H](Cc1ccc(O)cc1)NC(=O)[C@H](Cc1ccc(O)cc1)NC(=O)[C@H](Cc1c[nH]c2ccccc12)NC(=O)[C@H](CC(=O)O)NC(=O)[C@H](CCC(N)=O)NC(=O)[C@H](C)NC(C)=O)C(=O)N[C@@H](CC(C)C)C(N)=O [F2]
- inhibition of P12-XB streptavidin-HRP complex binding: failed to significantly inhibit complex binding at one micromolar
